As a reminder, the Ki is the dissociation constant of the complex between target and ligand, obtained from inhibition or displacement. Higher therefore signals lower affinity.

Sequences of proteins named here, by UniProt entry; tags and fusion partners are left off. A change or cut given only in a name is not applied to a line headed by its entry. Residues count along the entry.
UniProt P15273: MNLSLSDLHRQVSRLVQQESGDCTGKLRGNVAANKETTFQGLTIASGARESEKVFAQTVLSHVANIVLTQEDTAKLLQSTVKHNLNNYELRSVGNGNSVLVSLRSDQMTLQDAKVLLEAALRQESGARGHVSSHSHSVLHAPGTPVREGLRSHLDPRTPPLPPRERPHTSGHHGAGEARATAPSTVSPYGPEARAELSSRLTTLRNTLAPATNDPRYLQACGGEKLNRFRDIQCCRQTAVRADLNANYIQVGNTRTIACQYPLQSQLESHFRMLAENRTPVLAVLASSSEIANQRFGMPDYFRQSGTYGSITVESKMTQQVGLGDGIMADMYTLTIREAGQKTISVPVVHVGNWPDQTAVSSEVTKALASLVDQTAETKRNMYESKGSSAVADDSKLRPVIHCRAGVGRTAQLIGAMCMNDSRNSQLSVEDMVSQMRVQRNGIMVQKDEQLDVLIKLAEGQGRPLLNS
UniProt P19111, 20-506: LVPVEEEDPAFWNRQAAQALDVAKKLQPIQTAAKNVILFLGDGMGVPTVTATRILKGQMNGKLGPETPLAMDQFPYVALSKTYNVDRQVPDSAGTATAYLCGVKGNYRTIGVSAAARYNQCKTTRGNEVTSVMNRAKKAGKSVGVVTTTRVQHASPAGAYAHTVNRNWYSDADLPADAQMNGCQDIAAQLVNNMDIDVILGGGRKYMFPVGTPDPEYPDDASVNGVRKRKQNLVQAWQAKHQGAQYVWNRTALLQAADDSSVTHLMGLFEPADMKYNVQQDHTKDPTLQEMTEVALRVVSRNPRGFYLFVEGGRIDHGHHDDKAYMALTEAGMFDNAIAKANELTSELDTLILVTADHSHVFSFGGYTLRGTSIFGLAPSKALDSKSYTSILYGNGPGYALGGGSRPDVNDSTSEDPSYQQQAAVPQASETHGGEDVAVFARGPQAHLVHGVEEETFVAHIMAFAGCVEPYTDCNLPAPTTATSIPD

Assay [1] concerns the target protein tyrosine phosphatase (Yersinia enterocolitica, UniProt P15273). Kind of assay: Protein tyrosine phosphatase enzyme kinetics with PNPP substrate. Format: biochemical. Conditions: 37°C, pH 7.5. As to the method: Protein tyrosine phosphatase, a tyrosine phosphatase, is shown to be inhibited by VMP, EMP, and ThMP. Enzyme kinetics are done using purified protein tyrosine phosphatase from the bacteria, Yersinia enterocolitica, recombinant form, with PNPP as the substrate. The enzyme kinetics experiments are done similarly to the kinetics experiments for alkaline phosphatase and acid phosphatase described above.
Specifically, the enzyme reaction is done in a volume of 200 ul containing 120 ng of tyrosine phosphatase, 0.2-1.0 mM PNPP, and 0-0.5 mM VMP, EMP or ThMP. Each final reaction mixture contains 20 mM Tris, 0.1 % beta-mercaptoethanol, and 0.1% bovine serum albumin at pH 7.5. The ionic strength of each reaction mixture is the same and is balanced by the addition of the appropriate amount of NaCl. Activity of this enzyme is extremely sensitive to ionic strength. Each reaction is begun with the addition of tyrosine phosphatase. The formation of PNP is monitored by measuring the OD405/490 at 30 second intervals over a 30 minute period. The enzyme velocity is linear over this time period under these conditions. The Ki values are calculated as described above for alkaline phosphatase (Table 2).

The target of the next assay is alkaline phosphatase (Bos taurus, UniProt P19111). The format is biochemical, bovine. Conditions: PNPP substrate; pH 9.8; room temperature. As to the method: Enzyme kinetics experiments are done using purified alkaline phosphatase from bovine intestine and the substrate para-nitrophenyl phosphate (PNPP). The formation of colored para-nitrophenol (PNP) from colorless PNPP is followed by measuring the color formation in the presence of inhibitor at several concentrations.
Specifically, enzyme reactions are done in a volume of 200 ul containing 12.5 mU/ml alkaline phosphatase, PNPP at concentrations between 0.5-200 mM, and an inhibitor at concentrations between 0-100 mM. […] Phosphoserine is the natural substrate for this enzyme. The final buffer solution is 0.9 M diethanolamine and 0.5 mM […], pH 9.8, mixed 3:1 (v:v) with water. Reactions are done in a 96-well microtiter plate. The enzyme reaction is initiated by the addition of the enzyme. Each reaction mixture is done in triplicate. The enzyme reaction is monitored by measuring the optical density (OD) at 405 nm, with a reference OD of 490 nm. The OD's are read every 30 seconds over a 15 minute period at room temperature. PNP concentration is determined based on a standard curve correlating OD405/490 vs. PNP concentration. […] The data is then transformed and plotted as the Kmapp / Vmax. vs. inhibitor concentration. From these plots the dissociation constant of the enzyme-inhibitor complex, Ki, is determined. The x-intercept on this plot equals (-Ki). […]

For the substance vanillylmonophosphate [VMP], the Ki in assay [1] came to 1040 µM; on alkaline phosphatase, 3990 µM.

Values taken from patent EP0845217A1, “Inhibiting undesirable taste in oral compositions” (priority 1996, dated 1998).
